Results on two compounds are retold here after ChEMBL document CHEMBL2176934, “Discovery of highly selective and orally active lysophosphatidic acid receptor-1 antagonists with potent activity on human lung fibroblasts” (J Med Chem, 2012).

The test system of one test is HLF. Description: Inhibition of LPA-induced proliferation of HLF incubated for 1 hr prior to LPA-challenge measured after 48 hrs by BrdU incorporation assay. The test is classed as functional. Conditions: Homo sapiens.
The species entered for another test is Homo sapiens. Nature of the test: Selectivity ratio of IC50 for human recombinant LPA3 to IC50 for human recombinant LPA1.

Calls of active or inactive are those of the source. The calls are words filed in the database; no cut-off is given here.

As to `C[C@H](OC(=O)Nc1c(-c2ccccc2F)cnn1C)c1ccccc1Cl`, in the test on HLF, the inhibition entry was “inactive”.
With `C[C@@H](OC(=O)Nc1c(-c2ccc(-c3ccc(CC(=O)O)cc3)cc2)cnn1C)c1ccccc1`, the Ratio IC50 in the test filed under Homo sapiens was more than 850.
